We go through 2 compounds from patent publication EP0415456A2, “Xanthine compounds” (priority 1989, dated 1991).

By UniProt entry, the sequences of proteins in these tests, tags left out.
UniProt P47745, whole entry: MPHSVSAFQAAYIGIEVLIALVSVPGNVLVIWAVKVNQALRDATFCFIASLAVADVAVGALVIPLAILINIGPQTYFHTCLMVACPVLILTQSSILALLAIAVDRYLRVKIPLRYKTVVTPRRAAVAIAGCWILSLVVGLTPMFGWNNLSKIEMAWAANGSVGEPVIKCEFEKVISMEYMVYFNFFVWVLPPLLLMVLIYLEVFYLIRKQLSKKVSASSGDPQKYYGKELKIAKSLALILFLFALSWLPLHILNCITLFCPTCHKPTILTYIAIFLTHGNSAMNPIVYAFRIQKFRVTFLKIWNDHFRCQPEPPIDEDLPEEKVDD

The experiment has as its target T1, Adenosine A₁ Receptor (Cavia porcellus, UniProt P47745).
T1 construct: Cerebrum of a guinea pig was suspended; from tissue; host or cells: guinea pig cerebrum membrane preparation
Briefly: Adenosine A1 receptor binding (3H-CHA binding). More on the design: species or system guinea pig. Particulars: for inhibition at 10 µM / inhibition at 100 µM: read-out: A₁ Receptor Inhibition (%).

As a reminder, the inhibition is how much of the control response was suppressed. The term pKi denotes −log10 of the Ki, conventionally taken in molar units.

SMILES strings stand for the structures. pKi: −log10 of the molar value.

Take `Nc1nc2ccc(Cl)cc2c2nc(-c3ccco3)nn12` [CGS 15943, reference compound]: the inhibition at 10 µM came to 99% and the inhibition at 100 µM amounted to 96%.

Consider `Cn1c(=O)c2[nH]cnc2n(C)c1=O` [Theophylline, 1,3-dimethylxanthine, reference compound], for which the inhibition at 10 µM came to 33% and the inhibition at 100 µM turned out to be 74%. Besides, the negative-log Ki (pKi) (calculated from Cheng-Prusoff's equation, ³H-CHA, guinea pig cerebrum) is 4.64.
